{"sequences": {"note": "By UniProt entry, the sequences of proteins in these tests, tags left out.", "UniProt P45985, whole entry": "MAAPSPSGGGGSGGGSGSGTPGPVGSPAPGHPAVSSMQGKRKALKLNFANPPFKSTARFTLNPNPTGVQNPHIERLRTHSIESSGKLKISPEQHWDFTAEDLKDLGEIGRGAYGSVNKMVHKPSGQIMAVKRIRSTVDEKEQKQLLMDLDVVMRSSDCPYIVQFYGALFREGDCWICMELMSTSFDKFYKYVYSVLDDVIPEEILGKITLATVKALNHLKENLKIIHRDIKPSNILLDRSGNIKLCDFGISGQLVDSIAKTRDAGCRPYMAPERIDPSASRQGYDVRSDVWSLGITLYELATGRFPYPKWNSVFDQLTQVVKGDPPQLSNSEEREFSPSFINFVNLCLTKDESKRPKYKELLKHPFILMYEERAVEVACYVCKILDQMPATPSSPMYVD", "UniProt Q86YV6, whole entry": "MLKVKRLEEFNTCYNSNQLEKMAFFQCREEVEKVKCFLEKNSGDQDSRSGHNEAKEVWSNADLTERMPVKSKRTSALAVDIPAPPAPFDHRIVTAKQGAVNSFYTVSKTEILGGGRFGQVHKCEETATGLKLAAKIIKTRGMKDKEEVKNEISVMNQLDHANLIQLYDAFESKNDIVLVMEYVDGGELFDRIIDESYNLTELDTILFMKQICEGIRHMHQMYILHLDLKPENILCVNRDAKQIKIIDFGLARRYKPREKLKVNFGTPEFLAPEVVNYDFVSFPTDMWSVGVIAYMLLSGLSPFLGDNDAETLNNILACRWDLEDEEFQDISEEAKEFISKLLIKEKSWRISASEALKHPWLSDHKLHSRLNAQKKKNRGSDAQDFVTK", "UniProt Q9Y2I7, whole entry": "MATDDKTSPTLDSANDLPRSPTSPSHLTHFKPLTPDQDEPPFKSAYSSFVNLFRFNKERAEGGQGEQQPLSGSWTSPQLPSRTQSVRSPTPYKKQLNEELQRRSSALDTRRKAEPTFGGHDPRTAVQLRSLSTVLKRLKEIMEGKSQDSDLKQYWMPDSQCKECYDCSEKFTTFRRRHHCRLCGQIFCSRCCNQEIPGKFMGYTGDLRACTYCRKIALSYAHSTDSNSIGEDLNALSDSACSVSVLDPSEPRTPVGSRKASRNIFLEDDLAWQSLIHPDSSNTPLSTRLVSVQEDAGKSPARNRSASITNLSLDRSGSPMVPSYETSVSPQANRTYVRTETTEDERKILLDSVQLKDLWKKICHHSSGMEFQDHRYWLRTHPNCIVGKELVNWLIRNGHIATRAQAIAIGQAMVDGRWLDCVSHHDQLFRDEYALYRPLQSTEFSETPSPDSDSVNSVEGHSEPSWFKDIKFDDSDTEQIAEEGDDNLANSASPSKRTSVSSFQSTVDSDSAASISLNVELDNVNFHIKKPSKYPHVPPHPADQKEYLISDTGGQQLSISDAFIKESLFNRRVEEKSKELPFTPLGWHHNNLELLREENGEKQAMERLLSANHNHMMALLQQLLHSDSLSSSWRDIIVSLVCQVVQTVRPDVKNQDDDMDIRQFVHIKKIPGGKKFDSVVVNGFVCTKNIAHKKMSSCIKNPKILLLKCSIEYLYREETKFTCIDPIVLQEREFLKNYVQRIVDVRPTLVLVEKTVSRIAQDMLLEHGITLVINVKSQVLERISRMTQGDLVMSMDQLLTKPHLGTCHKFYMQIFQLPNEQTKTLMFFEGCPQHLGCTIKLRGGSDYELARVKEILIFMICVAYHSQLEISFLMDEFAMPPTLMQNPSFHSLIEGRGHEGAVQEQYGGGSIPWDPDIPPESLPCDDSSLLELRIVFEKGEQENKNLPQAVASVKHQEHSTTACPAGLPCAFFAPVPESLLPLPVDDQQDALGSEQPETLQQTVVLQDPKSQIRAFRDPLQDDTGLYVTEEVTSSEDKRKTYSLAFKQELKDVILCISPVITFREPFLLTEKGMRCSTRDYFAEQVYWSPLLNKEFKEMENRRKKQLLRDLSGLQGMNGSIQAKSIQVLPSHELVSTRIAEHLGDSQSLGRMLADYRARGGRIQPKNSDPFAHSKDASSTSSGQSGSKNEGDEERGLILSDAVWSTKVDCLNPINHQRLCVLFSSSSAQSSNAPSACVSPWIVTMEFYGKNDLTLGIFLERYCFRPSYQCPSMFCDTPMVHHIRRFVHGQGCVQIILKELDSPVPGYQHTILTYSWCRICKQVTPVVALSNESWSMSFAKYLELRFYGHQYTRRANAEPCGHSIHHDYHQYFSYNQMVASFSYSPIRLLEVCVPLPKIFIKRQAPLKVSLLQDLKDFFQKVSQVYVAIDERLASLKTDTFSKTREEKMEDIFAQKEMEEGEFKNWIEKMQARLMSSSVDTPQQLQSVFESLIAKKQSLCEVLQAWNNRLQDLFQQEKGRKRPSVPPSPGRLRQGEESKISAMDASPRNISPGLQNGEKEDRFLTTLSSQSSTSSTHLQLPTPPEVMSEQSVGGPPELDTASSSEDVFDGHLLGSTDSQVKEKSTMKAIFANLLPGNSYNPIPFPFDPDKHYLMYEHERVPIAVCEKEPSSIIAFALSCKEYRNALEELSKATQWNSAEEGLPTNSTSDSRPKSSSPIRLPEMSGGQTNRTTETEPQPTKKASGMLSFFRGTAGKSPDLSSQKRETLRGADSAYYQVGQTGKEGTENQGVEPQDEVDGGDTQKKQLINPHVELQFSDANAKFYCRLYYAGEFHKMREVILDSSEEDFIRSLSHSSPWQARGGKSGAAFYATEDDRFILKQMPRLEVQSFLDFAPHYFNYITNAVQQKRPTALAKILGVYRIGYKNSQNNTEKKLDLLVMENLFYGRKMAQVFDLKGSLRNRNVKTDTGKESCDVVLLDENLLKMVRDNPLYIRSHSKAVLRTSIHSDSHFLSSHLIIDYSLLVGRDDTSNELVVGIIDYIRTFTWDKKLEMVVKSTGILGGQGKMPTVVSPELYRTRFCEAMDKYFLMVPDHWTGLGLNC", "UniProt O60331, whole entry": "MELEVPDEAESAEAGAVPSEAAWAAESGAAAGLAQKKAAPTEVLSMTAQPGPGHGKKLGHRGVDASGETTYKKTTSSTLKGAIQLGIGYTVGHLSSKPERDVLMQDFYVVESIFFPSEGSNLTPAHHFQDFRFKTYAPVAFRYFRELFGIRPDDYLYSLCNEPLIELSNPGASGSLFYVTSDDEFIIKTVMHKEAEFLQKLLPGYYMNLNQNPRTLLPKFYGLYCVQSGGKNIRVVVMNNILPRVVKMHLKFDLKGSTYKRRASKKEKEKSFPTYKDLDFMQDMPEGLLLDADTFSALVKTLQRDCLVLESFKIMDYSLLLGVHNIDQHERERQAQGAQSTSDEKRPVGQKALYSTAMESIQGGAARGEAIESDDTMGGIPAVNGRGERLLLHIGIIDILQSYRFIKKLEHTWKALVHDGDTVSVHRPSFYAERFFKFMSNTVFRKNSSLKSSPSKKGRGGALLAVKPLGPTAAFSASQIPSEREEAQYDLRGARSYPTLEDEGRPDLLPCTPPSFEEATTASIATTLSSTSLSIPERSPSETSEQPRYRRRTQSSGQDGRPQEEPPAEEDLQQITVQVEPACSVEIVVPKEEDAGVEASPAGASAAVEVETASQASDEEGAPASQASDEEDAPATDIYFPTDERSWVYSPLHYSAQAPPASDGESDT", "UniProt O94806, whole entry": "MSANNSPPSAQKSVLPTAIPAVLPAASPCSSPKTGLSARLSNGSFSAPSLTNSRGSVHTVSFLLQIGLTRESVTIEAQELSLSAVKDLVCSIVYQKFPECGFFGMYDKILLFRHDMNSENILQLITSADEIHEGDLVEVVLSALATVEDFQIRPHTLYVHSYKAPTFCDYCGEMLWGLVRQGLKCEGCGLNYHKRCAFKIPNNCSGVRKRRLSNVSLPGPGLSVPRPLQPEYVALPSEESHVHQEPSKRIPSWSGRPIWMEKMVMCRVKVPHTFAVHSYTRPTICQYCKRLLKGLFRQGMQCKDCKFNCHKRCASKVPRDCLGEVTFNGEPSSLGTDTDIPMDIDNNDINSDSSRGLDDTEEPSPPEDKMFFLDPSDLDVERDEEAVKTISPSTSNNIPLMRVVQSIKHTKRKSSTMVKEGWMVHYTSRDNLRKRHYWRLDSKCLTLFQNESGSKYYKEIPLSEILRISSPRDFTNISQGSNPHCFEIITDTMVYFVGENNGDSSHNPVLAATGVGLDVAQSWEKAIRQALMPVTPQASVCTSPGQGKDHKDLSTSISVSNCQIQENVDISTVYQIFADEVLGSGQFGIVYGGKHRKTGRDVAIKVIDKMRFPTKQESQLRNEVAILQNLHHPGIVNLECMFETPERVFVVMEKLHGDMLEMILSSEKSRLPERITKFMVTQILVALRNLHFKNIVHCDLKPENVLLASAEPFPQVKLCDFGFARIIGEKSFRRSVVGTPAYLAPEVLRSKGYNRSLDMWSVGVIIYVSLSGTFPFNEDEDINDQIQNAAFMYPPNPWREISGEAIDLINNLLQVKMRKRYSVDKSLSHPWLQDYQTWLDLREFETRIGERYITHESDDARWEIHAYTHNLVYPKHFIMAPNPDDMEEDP", "UniProt Q6XUX3, whole entry": "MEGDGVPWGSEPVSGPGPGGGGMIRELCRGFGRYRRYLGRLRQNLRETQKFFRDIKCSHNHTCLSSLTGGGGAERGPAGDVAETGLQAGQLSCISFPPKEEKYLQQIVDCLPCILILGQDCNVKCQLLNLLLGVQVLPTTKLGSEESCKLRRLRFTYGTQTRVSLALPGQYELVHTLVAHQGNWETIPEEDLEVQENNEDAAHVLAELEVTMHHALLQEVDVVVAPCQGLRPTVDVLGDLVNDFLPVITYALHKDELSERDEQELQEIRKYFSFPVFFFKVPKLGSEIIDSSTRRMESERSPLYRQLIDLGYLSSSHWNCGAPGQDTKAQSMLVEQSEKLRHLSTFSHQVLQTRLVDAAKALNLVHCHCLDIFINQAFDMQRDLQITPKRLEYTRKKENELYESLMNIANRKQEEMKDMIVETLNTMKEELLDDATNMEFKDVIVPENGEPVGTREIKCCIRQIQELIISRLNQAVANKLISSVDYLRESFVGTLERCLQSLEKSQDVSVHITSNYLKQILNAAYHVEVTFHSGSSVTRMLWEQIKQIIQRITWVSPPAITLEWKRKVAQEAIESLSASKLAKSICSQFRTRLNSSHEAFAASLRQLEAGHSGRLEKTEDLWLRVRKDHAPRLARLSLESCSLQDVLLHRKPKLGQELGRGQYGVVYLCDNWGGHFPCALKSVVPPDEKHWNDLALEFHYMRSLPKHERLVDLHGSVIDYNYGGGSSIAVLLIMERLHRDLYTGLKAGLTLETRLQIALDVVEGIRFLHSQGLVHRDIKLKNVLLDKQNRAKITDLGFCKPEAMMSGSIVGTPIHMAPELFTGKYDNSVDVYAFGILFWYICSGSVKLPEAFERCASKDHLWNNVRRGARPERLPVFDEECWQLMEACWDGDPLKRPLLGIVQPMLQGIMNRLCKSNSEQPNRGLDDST"}, "source": "paper PMC10104807", "about": "“Modulation of tau tubulin kinases (TTBK1 and TTBK2) impacts ciliogenesis” (Scientific Reports, 2023)", "assay_in_all_cases": "DiscoverX scanMAX binding assay", "settings_in_all_cases": "1 μM", "key": {"[1]": {"molecular_target": "MEK4 (Homo sapiens, UniProt P45985)"}, "[2]": {"molecular_target": "MYLK4 (Homo sapiens, UniProt Q86YV6)"}, "[3]": {"molecular_target": "PIKfyve (Homo sapiens, UniProt Q9Y2I7)"}, "[4]": {"molecular_target": "PIP5K1C (Homo sapiens, UniProt O60331)"}, "[5]": {"molecular_target": "PRKD3 (Homo sapiens, UniProt O94806)"}, "[6]": {"molecular_target": "RIPK5 (Homo sapiens, UniProt Q6XUX3)"}, "[7]": {"molecular_target": "YSK4 (Homo sapiens, UniProt Q56UN5)"}}}
{"smiles": "CCC(O)(C#Cc1ccc2[nH]c3c(c2c1)-c1nc(N)ncc1CCC3)CC", "values": [{"measurement": "MEK4 (MKK4) % control at 1000nM / DiscoverX PoC value", "setting": "[1]", "value": 3.5, "unit": "% control"}, {"measurement": "MYLK4 % control at 1000nM / DiscoverX PoC value", "setting": "[2]", "value": 2.4, "unit": "% control"}, {"measurement": "PIKFYVE % control at 1000nM / DiscoverX PoC value", "setting": "[3]", "value": 0, "unit": "% control"}, {"measurement": "PIP5K1C % control at 1000nM / DiscoverX PoC value", "setting": "[4]", "value": 0, "unit": "% control"}, {"measurement": "PRKD3 (PKD3) % control at 1000nM / DiscoverX PoC value", "setting": "[5]", "value": 0, "unit": "% control"}, {"measurement": "RIPK5 % control at 1000nM / DiscoverX PoC value", "setting": "[6]", "value": 4.1, "unit": "% control"}, {"measurement": "YSK4 % control at 1000nM / DiscoverX PoC value", "setting": "[7]", "value": 1.1, "unit": "% control"}]}
